Values joined by “and” are separate entries in the source; they are usually repeats but may differ in a detail not shown here. Equal entries are not always repeated.
System: MDCKII-ABCB1 cells
Test: XTT cytotoxicity, CDKi + DNR combination (Chou-Talalay)
Assay type: cell-based
Description: 1×10^4 MDCKII-ABCB1, 1×10^4 MDCKII parent, 2×10^4 HCT-8, or 2×10^4 HepG2 cells were grown in 96-well culture plates and incubated for 24 h. Individual CDKi diluted with growth medium were added to the exponentially growing cells and the resulting mixtures were incubated for 72 h at 37°C, 5% CO2. Cytotoxicity was then assessed using the XTT assay as follows: cells were incubated with 0.167 mg/mL XTT and 4 µM PMS in Opti-MEM for 2 h. The absorbance of the soluble formazan released was measured at 470 nm on a microplate reader (Tecan, Männedorf, Switzerland).
The combination index (CI) method of Chou-Talalay, based on the median-effect equation, was used to calculate combined drug effects. This approach offers quantitative definitions for additive, synergistic and antagonistic effects (CI values of 0.9–1.1, <0.9, and >1.1, respectively). Combination experiments were performed in a constant-ratio experimental design as recommended for the most efficient data analysis, and the generated data were used to quantify dose-reduction indices (DRI) for pairs of the tested drugs. DRI represents the fold-change of a focal effect when individual agents are used simultaneously relative to their separate effects, and their activity is synergistic if DRI > 1. […] The data acquired from these drug combination experiments were analyzed using CompuSyn ver. 3.0.1 software (ComboSyn Inc., Paramus, NJ, USA).

[1] = MDCKII-ABCB1, 72 h, DNR combined with Olomoucine II, ratio 1∶0.7
[2] = MDCKII-ABCB1, 72 h, DNR combined with Purvalanol A, ratio 1∶0.9
[3] = MDCKII-ABCB1, 72 h, DNR combined with Roscovitine, ratio 1∶0.8

Structure (SMILES)	DRI at Fa 0.5, drug I (DNR) [1]	DRI at Fa 0.75, drug I (DNR) [1]	DRI at Fa 0.9, drug I (DNR) [1]	DRI at Fa 0.5, drug I (DNR) [2]	DRI at Fa 0.75, drug I (DNR) [2]	DRI at Fa 0.9, drug I (DNR) [2]	DRI at Fa 0.5, drug I (DNR) [3]	DRI at Fa 0.75, drug I (DNR) [3]	DRI at Fa 0.9, drug I (DNR) [3]	Combination index (CI) category, combination with DNR	DRI at Fa 0.5, drug II (CDKi) (MDCKII-ABCB1, 72 h, CDKi combined with DNR at constant ratio)
COc1cccc2c1C(=O)c1c(O)c3c(c(O)c1C2=O)C[C@@](O)(C(C)=O)C[C@@H]3O[C@H]1C[C@H](N)[C@H](O)[C@H](C)O1 [DNR, daunorubicin]	2.68±0.26	3.3 and 3.32±0.22	4.12±0.21	3.76±0.07	4.6 and 4.56±0.07	5.54±0.06	3.06±0.03	3.8 and 3.80±0.03	4.72±0.05	–	–
CC[C@H](CO)Nc1nc(NCc2ccccc2)c2ncn(C(C)C)c2n1 [roscovitine]	–	–	–	–	–	–	–	–	–	synergistic category of drug combination effects across almost the whole fraction of cells affected (Fa) range	3.20±0.03
